# Source: PubChem
# This is a sample that favours compounds with a hit; in the whole collection about 2.1% have one here.
# Yeast UUG start: yeast start codon fidelity modulation | S. cerevisiae UUG-firefly luciferase reporter, luminescence/redox ratio | activity score, % at 18.7 µM | hit rate 0.13% among 350,000 | AID 602363;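 active means replicate mean at a twofold rise or more, about +100% in these data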;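 further: firefly luciferase made from a UUG start codon reports start codon fidelity; reporter light over untreated wells divided by growth signal over untreated wells; some hits fall short of that in this replicate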
# miR122 inh: inhibitors of miR-122 in Huh7 cells; activation (reporter increase), % at 12.5 µM; 340,000 compounds, 0.3% hits; Huh7 miR-122 Renilla luciferase sensor, 48 h; neutral wells = 0, positive control = 100; AID 602342;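 active means mean replicate activation score at least 90 and every replicate individually at or above 90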;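 further: higher luciferase means less miR-122 activity so hits act as miR-122 inhibitors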
# Wnt bcat act: Wnt/beta-catenin pathway activation; Wnt/beta-catenin reporter cell assay, activator, plate reader; 300,000 compounds, 1.2% hits; activation, % at 9.35 µM; in the data active means activation above about 30%, passing the limit was not always enough
# MITF TRPM1 HTS: MITF TRPM1 promoter activation in melanoma cells; SK-MEL-5 TRPM1-promoter luciferase, 24 h; % of positive control, neutral wells = 0; activation, % at 12.5 µM; 300,000 compounds, 0.75% hits;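 active means mean activation of at least 80% with every replicate also reaching 80%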
# PGC1a acetyl inh: modulators of PGC1a acetylation; U2OS PGC1a acetylation, AlphaScreen anti-acetyl-lysine; with virally co-expressed GCN5 acetyltransferase; inhibition, % at 15.6 µM; 350,000 compounds, 0.17% hits;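 active means every replicate shows inhibition of at least 40%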
# MITF TRPM1 inh: reduces MITF-dependent TRPM1 promoter luciferase signal; SK-MEL-5 TRPM1 promoter luciferase, 24 h; AID 488899; 330,000 compounds, 0.83% hits; inhibition, % at 12.5 µM;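 active means mean inhibition across replicates of 60% or more, whatever share of single replicates reaches that level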
# A number is an active result; 0 = inactive; - = no result given.
SMILES,Yeast UUG start,miR122 inh,Wnt bcat act,MITF TRPM1 HTS,PGC1a acetyl inh,MITF TRPM1 inh
CCOC(=O)C(=CN=C(N)Nc1nc2ccccc2o1)C(=O)OCC,0,0,0,0,0,0
Cc1[nH]c2ccc(OCc3ccccc3)cc2c1CCN1C(=O)OC(C)(C)C1(C)O (stereo not given),0,-,0,-,-,-
Cc1[nH]c2ccc(F)cc2c1CCN1C(=O)OC(C)(C)C1(C)O (stereo not given),0,0,38.7,0,0,0
C[C@H]1CCCCO[C@H](CN(C)C)[C@@H](C)CN([C@@H](C)CO)C(=O)c2cc(NC(=O)NC3CCCCC3)ccc2O1,0,0,-,-,0,-
CC(NC(=O)c1ccc([N+](=O)[O-])o1)C12CC3CC(CC(C3)C1)C2 (stereo not given),0,0,0,0,-,69.8
CC(NC(=O)C12CC3CC(CC(C3)C1)C2)C(=O)NN=Cc1ccc([N+](=O)[O-])o1 (stereo not given),0,0,0,0,0,62.1
CC(NC(=O)C12CC3CC(CC(C3)C1)C2)C(=O)N/N=C/C1=C(N2CCOCC2)C(=C\c2cccc([N+](=O)[O-])c2)/CC1 (stereo not given),0,-,0,0,-,0
C[C@H](CO)N1C[C@H](C)[C@@H](CN(C)C(=O)C2CCC2)Oc2ncc(Br)cc2C1=O,-,0,-,-,0,-
c1ccc(C2=NN(c3ccccc3)CC2)cc1,0,0,50.3,87.9,0,0
CCOC(=O)/C(=C/c1ccc(N2CCC(c3ccccc3)=N2)cc1)C(C)=O,-,-,-,0,-,0
CN=C1S/C(=C\c2ccc(O)c(OC)c2)C(=O)N1C,0,0,51.8,-,0,-
COc1cccc(/C=C/c2ccccn2)c1O,-,-,41.5,0,0,0
C[C@H]1CN([C@@H](C)CO)C(=O)Cc2cc(NC(=O)Nc3ccc(C(F)(F)F)cc3)ccc2O[C@H]1CN(C)Cc1ccccc1,0,0,-,-,-,-
O=C(CSC1CCc2ccccc21)NNC(=O)Nc1ccc(Cl)cc1 (stereo not given),-,-,37.6,-,-,-
COC(=O)c1ccc(NC(=O)Cc2ccc(C)cc2)cc1,0,0,0,0,0,0
CCCCOC(=O)Nc1ccc(C(=O)OC)cc1,0,0,52.7,0,0,0
CC(=O)Nc1ccc(C(=O)OCc2ccccc2Cl)cc1,-,-,0,0,-,0
CCC(=O)Nc1ccc(C(=O)OCc2ccccc2Cl)cc1,0,0,-,120.5,0,0
COC(=O)c1ccc(NC(=O)Cc2ccccc2)cc1,-,-,38.9,-,-,0
CCOc1ccc(NC(=O)Cc2ccccc2)cc1,0,0,34.7,83.1,0,0
Cc1ccc(S(=O)(=O)N[C@@H]2CC[C@@H](CC(=O)NCCN3CCCCC3)O[C@@H]2CO)cc1,0,-,-,-,0,-
CS(=O)(=O)N1[C@H](CO)[C@@H](c2ccccc2)C12CN(C(=O)C1CC1)C2,-,-,-,-,0,-
C[C@@H]1CN([C@H](C)CO)C(=O)c2cc(NC(=O)Nc3ccc(F)cc3)ccc2O[C@@H]1CN(C)Cc1ccncc1,0,0,-,-,0,-
COc1ccc(NC(=O)N(C)C[C@H]2Oc3ccc(NC(=O)Nc4cccc5ccccc45)cc3CC(=O)N([C@H](C)CO)C[C@H]2C)cc1,0,0,-,-,0,-
CCOc1ccc(NC(=S)Nc2cccc3ccccc23)cc1,0,0,31.4,0,0,0
SMILES,Yeast UUG start,miR122 inh,Wnt bcat act,MITF TRPM1 HTS,PGC1a acetyl inh,MITF TRPM1 inh
O=C(CCOc1ccccc1)Nc1ccccc1,-,0,-,0,0,0
Cc1ccc(NC(=O)CCOc2ccccc2)cc1,0,0,0,90.2,0,0
C=CS(=O)(=O)c1ccc(Oc2ccc(S(=O)(=O)C=C)cc2)cc1,-,-,0,0,-,89.3
C/C=C/c1ccc2c(c1)O[C@@H](CN(C)CC1CCOCC1)[C@H](C)CN([C@H](C)CO)S2(=O)=O,0,0,-,-,0,-
Cc1ccc(-c2cc(-c3ccccc3C)[nH]n2)c(O)c1,0,0,-,0,0,0
O=[N+]([O-])c1ccccc1-c1cc(-c2ccccc2O)n[nH]1,0,0,35.6,0,0,0
COc1ccc(-c2c[n+]3c4n2CCCCC4=C(c2ccccc2)C3)cc1,0,0,-,0,0,77.9
COc1ccc(-c2c[n+](CC(=O)c3ccccc3)c3n2CCCCC3)cc1,-,-,0,0,-,0
O=C(C[C@H]1CC[C@@H]2[C@H](COC[C@H](O)CN2C(=O)Nc2ccc(Cl)c(Cl)c2)O1)NCc1ccc(Cl)c(Cl)c1,0,0,-,-,0,-
CCCCNC(=O)c1cc(-c2ccc3c(c2)OCO3)on1,0,-,0,0,-,0
CC(C)NC(=O)c1cc(-c2ccc3c(c2)OCO3)on1,0,0,42.8,-,0,0
CCN(CC)C(=O)c1cc(-c2ccc3c(c2)OCO3)on1,0,-,0,103.5,-,0
CCCCNC(=O)c1cc(-c2ccc(OC)cc2)on1,0,0,-,80.7,0,0
CCCNC(=O)c1cc(-c2ccc3c(c2)OCO3)on1,0,-,33.4,0,0,0
CC(C)NC(=O)N[C@@H]1CC[C@@H](CC(=O)NCCN2CCCC2)O[C@@H]1CO,0,-,-,-,0,-
C[C@H]1CN([C@@H](C)CO)C(=O)c2cc(/C=C/c3ccccc3)cnc2O[C@@H]1CN(C)Cc1cncnc1,0,0,-,-,0,-
CCCNC(=O)NNC(=O)c1cc(-c2ccc3c(c2)OCO3)nc2ccccc12,0,102.2,0,0,0,0
C[C@@H]1CN([C@H](C)CO)C(=O)c2cccc(NC(=O)c3cnccn3)c2O[C@@H]1CN(C)S(=O)(=O)c1ccc(F)cc1,-,0,-,-,0,-
O=C(COC(=O)c1ccccc1)NC12CC3CC(CC(C3)C1)C2,0,0,0,0,0,0
O=C(NCCc1ccc(F)cc1)NC12CC3CC(CC(C3)C1)C2,0,-,52.1,0,-,0
O=C(CCCc1ccccc1)NC12CC3CC(CC(C3)C1)C2,0,0,0,102.3,0,0
CS(=O)(=O)N1N=C(c2ccc(Cl)cc2)CC1c1cccs1 (stereo not given),0,126.3,-,0,-,0
NS(=O)(=O)c1ccc(CCNC(=O)CSc2nc3ccsc3c(=O)n2Cc2ccccn2)cc1,0,0,35.8,-,0,-
COc1ccc(CCNC(=O)CSc2nc3ccsc3c(=O)n2Cc2ccccn2)cc1OC,0,0,0,-,0,-
Cc1[nH]n(-c2ccccc2)c(=O)c1C(C[N+](=O)[O-])c1ccc(Br)cc1 (stereo not given),-,0,-,0,0,82.8
O=C1c2ccccc2S(=O)(=O)N1Cc1nc2ccccc2s1,-,0,-,0,0,70.4
C[C@H](O)C#Cc1cnc2c(c1)C(=O)N([C@@H](C)CO)C[C@H](C)[C@@H](CN(C)Cc1ccccn1)O2,0,0,-,-,0,-
CCCCN(CC)CCNC(=O)c1cc2c(-c3ccc(Cl)cc3)nn(C)c2s1,0,0,0,0,0,68.2
CCN(CC)CCNC(=O)c1cc2c(-c3ccc(Cl)cc3)nn(C)c2s1,0,0,0,0,0,62.2
CCCN(CCC)CCNC(=O)c1cc2c(-c3ccc(Cl)cc3)nn(C)c2s1,0,0,0,0,-,0
